Results on one molecule are retold here after ChEMBL document CHEMBL1128924, “Some benzenesulfonamido-substituted valerophenones that are selective antagonists for the 5-HT2C receptor” (Bioorg Med Chem Lett, 1996).

Protein sequences, listed by entry. Tags and fused reporters are not part of them. Lines headed by an entry give the natural chain unless they say otherwise; changes in a name come on top.
UniProt P28335: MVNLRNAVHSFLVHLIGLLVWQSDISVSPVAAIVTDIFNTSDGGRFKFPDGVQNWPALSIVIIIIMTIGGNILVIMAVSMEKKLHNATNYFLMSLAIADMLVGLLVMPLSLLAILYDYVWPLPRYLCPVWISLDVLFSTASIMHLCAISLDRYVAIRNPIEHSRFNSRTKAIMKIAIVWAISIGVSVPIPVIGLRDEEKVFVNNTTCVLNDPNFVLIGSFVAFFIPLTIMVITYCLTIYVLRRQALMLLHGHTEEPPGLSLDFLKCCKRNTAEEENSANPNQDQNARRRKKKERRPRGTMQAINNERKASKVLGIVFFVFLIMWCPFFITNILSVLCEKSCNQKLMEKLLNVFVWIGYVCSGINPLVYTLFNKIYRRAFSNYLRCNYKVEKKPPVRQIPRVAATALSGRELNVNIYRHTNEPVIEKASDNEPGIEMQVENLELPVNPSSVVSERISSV

pKi: −log10 of the molar value.

The test has as its target 5-hydroxytryptamine receptor 2C (Homo sapiens, UniProt P28335). Put plainly: Displacement of [3H]mesulergine from human cloned 5-hydroxytryptamine 2C receptor expressed in CHO-K1 cells. Type of test: cell-based.

On to `CN1C[C@@H](NS(=O)(=O)N(C)C)C[C@@H]2c3cccc4c3c(cn4C)C[C@H]21` [MESULERGINE], for which the pKi was 8.70.

The term pKi denotes the Ki on a negative log10 scale, so that one unit is a factor of ten. Read a high pKi as a small Ki.
